# PMC3878761, “Interactions of peptide triazole thiols with Env gp120 induce irreversible breakdown and inactivation of HIV-1 virions” (Retrovirology, 2013)
# Test system: fully infectious HIV-1 BaL virions
# Assay: infection inhibition, fully infectious HIV-1 BaL (p24 ELISA)
# Details: read-out: Viral inactivation EC50 (*, fully infectious), HOS CD4^+ve CCR5^+ve cells, 30 min pre-treatment at 37°C, p24 ELISA after 48 h, ± SD
row,Compound,EC50 [µM]
1,CC[C@H](C)[C@H](NC(=O)[C@@H](N)CCCNC(=N)N)C(=O)N[C@@H](CC(N)=O)C(=O)N[C@@H](CC(N)=O)C(=O)N[C@H](C(=O)N1C[C@@H](n2cc([C]34[CH]5[CH]6[CH]7[CH]3[Fe]6754389%10[CH]4[CH]3[CH]8[CH]9[CH]4%10)nn2)C[C@H]1C(=O)N[C@@H](Cc1c[nH]c2ccccc12)C(=O)N[C@@H](CO)C(=O)N[C@@H](CCC(=O)O)C(=O)N[C@@H](C)C(=O)N[C@@H](CCSC)C(=O)N[C@@H](CCSC)C(N)=O)[C@@H](C)CC (some centres unmarked) [HNG156],5.5
2,CC[C@H](C)[C@H](NC(=O)[C@@H](N)CCCNC(=N)N)C(=O)N[C@@H](CC(N)=O)C(=O)N[C@@H](CC(N)=O)C(=O)N[C@H](C(=O)N1C[C@@H](n2cc([C]34[CH]5[CH]6[CH]7[CH]3[Fe]6754389%10[CH]4[CH]3[CH]8[CH]9[CH]4%10)nn2)C[C@H]1C(=O)N[C@@H](Cc1c[nH]c2ccccc12)C(=O)N[C@@H](CO)C(=O)N[C@@H](CCC(=O)O)C(=O)N[C@@H](C)C(=O)N[C@@H](CCSC)C(=O)N[C@@H](CCSC)C(=O)NCCC(=O)N[C@@H](CCC(N)=O)C(=O)NCCC(=O)N[C@@H](CS)C(N)=O)[C@@H](C)CC (some centres unmarked) [KR13],0.639
